The list shows a part of the results, in another mix than the full data. Results filed as inconclusive are left out. A structure can be active in one record and inactive in another. Where a call stands in place of a potency, no number is given. Activity calls are given as the source filed them. Calls come from the whole dose curve; as a rule, active = well fitted cell-killing curve with a large enough effect in the repeat runs; inconclusive = weak or mixed curves, or effect the other way; inactive = flat fitted curve, though single readings scatter.
Potency is the fitted concentration of half-maximal effect.

The nature of the test: cAMP Responsive Elements (CRE) small molecule agonists, cell-based qHTS assay: qHTS cell viability counter screen (AID 2060914). Note: nearly all actives have a fitted effect of over 50% in size. As to conditions: CRE-bla HEK293T viability, CellTiter-Glo luminescence, 5 h; series mostly up to 92.4 µM. The text has this: National Center for Advancing Translational Sciences [NCATS]
Division of Preclinical Innovation [DPI]
U.S. Environmental Protection Agency [EPA]
National Institutes of Environmental Health Sciences [NIEHS]
National Toxicology Program [NTP]
U.S. Food and Drug Administration [FDA]
CREB (cyclic-AMP Responsive Element Binding Protein) is a cellular transcription factor. It binds to certain DNA sequences called cAMP Responsive Elements (CRE) and regulates the transcription of the genes. […] This cell line can be used to find agonists/antagonists of the cyclic AMP signaling pathway. The activation of the report gene under culture conditions can be detected by fluorescence intensity. This cell line has been used to screen the Tox21 10K compound library to identify agonists that induce oxidative stress. The cytotoxicity of the Tox21 compound library against the CRE-bla cell line was tested in parallel by measuring the cell viability using CellTiter-Glo assay (Promega, Madison, WI) in the same wells.
Tox21 Assay Protocol Summary:
CRE-bla Hek 293T cells were suspended in assay medium (DMEM containing 10% dialyzed FBS, 0.1 mM NEAA, 1 mM sodium pyruvate and 25 mM HEPES) and dispensed at 2,000 cells/5 uL /well into 1536-well black wall/clear bottom plates using a Multidrop Combi (ThermoFisher Scientific, Waltham, MA) dispenser. After the assay plates were incubated at 37 C/5% CO2 for 18 hrs, 23 nL of compounds dissolved in DMSO, positive controls or DMSO only was transferred to the assay plate by a pintool workstation (Kalypsys, San Diego, CA). After the plates were incubated at 37 C/5% CO2 for 3 hrs, 1 uL of LiveBLAzer B/G FRET substrate (Invitrogen, Carlsbad, CA) was added to each well using Bioraptr Flying Reagent Dispenser (FRD, Aurora Discovery, San Diego, CA). The plates were incubated at room temperature for 2 h, then fluorescence intensities were measured using an Envision plate reader (PerkinElmer, Shelton, CT) at Excitation 405nm, Emission 460nm and 530nm. The % activity was determined from the ratio of 460nm/530nm. For cell viability readout that measures cytotoxicity, 4 uL /well of CellTiter-Glo reagent was added into the assay plates using Bioraptr FRD. After 30 min incubation at room temperature, the luminescence intensity in the assay plates was measured using a ViewLux (PerkinElmer, Shelton, CT) plate reader.
With `O=P(Cl)(Cl)c1ccccc1`, the Potency result was “inactive”. The same measure, in the same setting: in the case of `O=P(Cl)(Oc1ccccc1)Oc1ccccc1` it was “inactive”; in that of `CCCCC(CC)CO[P+](=O)OCC(CC)CCCC` (configuration not stated), “inactive”; in that of `Cc1cc([N+](=O)[O-])cc([N+](=O)[O-])c1O`, “inactive”.

For the molecule `CCNC(C)Cc1ccc2c(c1)OCO2` (configuration not stated), the Potency entry is “inactive”. Same read-out and setting: for `CCCCOP(OCCCC)OCCCC` the value was “inactive”; for `COP(=S)(Cl)OC`, “inactive”. For the molecule `CCC(C)(OOC(C)(C)C)OOC(C)(C)C`, the activity change, negative = cytotoxicity was inactive: 10% [at 18.9 µM]. As for `Cc1cc([N+](=O)[O-])c(O)c([N+](=O)[O-])c1`, the Potency result is “inactive”. The same measure, in the same setting: in the case of `CC(C)CCCCCCCOP(OCCCCCCCC(C)C)Oc1ccccc1` it was “inactive”; in that of `O=[P+](Oc1ccccc1)Oc1ccccc1`, “inactive”. On the same count and under the same terms, in the case of `COC(=O)Cl` it was “inactive”.

For the molecule `O=C(Cl)OCCOC(=O)Cl`, the Potency entry was “inactive”. Same read-out and setting: in the case of `CN(N=O)C(=N)N[N+](=O)[O-]` it was “inactive”.

Take `O=[p+]1oc2ccccc2c2ccccc21` (configuration not stated): the Potency result was “inactive”.

With `O=[N+]([O-])c1ccc(S(=O)(=O)O)c([N+](=O)[O-])c1`, the Potency is active: 0.869 µM. Still for that read-out and setting: for `CN(C(=O)Cc1cccc2occc12)[C@H]1CC[C@@]2(CCCO2)C[C@@H]1N1CCCC1` the value was “inactive”; for `CCOP(=S)(CC)Sc1ccccc1` (configuration not stated), “inactive”; for `CCCCO[P+](=O)OCCCC`, “inactive”. Still for that read-out and setting: in the case of `CN(C(=O)Cc1ccccc1)[C@H]1CC[C@@]2(CCCO2)C[C@@H]1N1CCCC1` it was “inactive”; in that of `O=[N+]([O-])c1ccc([N+](=O)[O-])cc1`, “inactive”; in that of `CN(C(=O)Cc1ccc(Cl)c(Cl)c1)[C@H]1CC[C@@]2(CCCO2)C[C@@H]1N1CCCC1`, “inactive”. Still for that read-out and setting: for `CCCCCCCCCCCCCC[P+](CCCCCC)(CCCCCC)CCCCCC` the value was active: 54.3 µM; for `CC(C)OP(=S)(OC(C)C)SCCNS(=O)(=O)c1ccccc1`, “inactive”; for `NC(=O)Nc1ccc([As](=O)(O)O)cc1`, “inactive”. In the case of `O=C(Cl)Oc1ccccc1`, the Potency entry is “inactive”. For the molecule `O=C1C2CC=CCC2C(=O)N1SC(Cl)(Cl)C(Cl)Cl` (configuration not stated), the Potency result is “inactive”.

For the origin of these results see PubChem BioAssay (Tox21).
